Results as given in ChEMBL document CHEMBL1144321, “Synthesis and evaluation of novel peripherally restricted kappa-opioid receptor agonists” (Bioorg Med Chem Lett, 2005).

The chains behind the UniProt entries cited, without tags or fusion partners. Where a name states a change or a piece, a line headed by the entry shows the natural chain unless it says otherwise.
UniProt P41145: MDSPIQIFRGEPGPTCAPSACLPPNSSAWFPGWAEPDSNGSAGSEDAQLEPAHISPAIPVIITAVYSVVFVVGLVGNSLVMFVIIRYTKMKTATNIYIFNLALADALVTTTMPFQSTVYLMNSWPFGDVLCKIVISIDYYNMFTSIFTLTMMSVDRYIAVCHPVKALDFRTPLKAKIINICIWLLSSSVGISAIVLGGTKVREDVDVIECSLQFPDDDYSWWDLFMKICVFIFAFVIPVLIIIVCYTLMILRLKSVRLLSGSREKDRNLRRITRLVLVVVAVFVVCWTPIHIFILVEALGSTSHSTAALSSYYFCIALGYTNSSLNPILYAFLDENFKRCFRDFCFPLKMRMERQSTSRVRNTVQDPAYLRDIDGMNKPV

Columns and labels:
Mus musculus [1] = organism: Mus musculus; assay: Peripheral restriction index (Platform sedation ED50/Writhing ED50) in mouse
Mus musculus [2] = assay: Effective dose to inhibit acetic acid-inducedwrithing after subcutaneous administration in mice
[3] = molecular target: Kappa-type opioid receptor (Homo sapiens, UniProt P41145); assay: Displacement of bound [3H]diprenorphine from membranes expressing cloned human kappa opioid receptor

Compound | Index (Mus musculus [1]) | ED50 (Mus musculus [2]) | Ki [3]
CN(C(=O)Cc1ccc(C(F)(F)F)cc1)C(CN1CCCC1)c1cccc(OCC(=O)O)c1 (racemic) | > 180 | 1.7 mg/kg | 3.7 nM
CN(C(=O)Cc1ccc(Cl)c(Cl)c1)C(CN1CCCC1)c1cccc(OCC(=O)O)c1 (centres undefined) [ICI-204448] |  | 1.6 mg/kg | 
CN(C(=O)Cc1ccc(C(F)(F)F)cc1)[C@H](CN1CCCC1)c1ccccc1 | 25 | 0.005 mg/kg | 
CN(C(=O)Cc1ccc(C(F)(F)F)cc1)C(CN1CCCC1)c1cccc(O)c1 (racemic) |  |  | 0.44 nM
CN(C(=O)Cc1ccc(C(F)(F)F)cc1)[C@H](CN1CCCC1)c1cccc(NS(N)(=O)=O)c1 | 18 | 0.74 mg/kg | 0.48 nM
CN(C(=O)Cc1ccc(C(F)(F)F)cc1)C(CN1CCCC1)c1cccc(OCC(=O)OC(C)(C)C)c1 (racemic) | 81 | 1.7 mg/kg | 2.9 nM
COc1cccc(C(CN2CCCC2)N(C)C(=O)Cc2ccc(C(F)(F)F)cc2)c1 (racemic) |  | 0.15 mg/kg | 0.53 nM
CN(C(=O)Cc1ccc(C(F)(F)F)cc1)[C@H](CN1CCCC1)c1cccc(NS(C)(=O)=O)c1 | 160 | 0.56 mg/kg | 0.36 nM
CN(C(=O)Cc1ccc(C(F)(F)F)cc1)[C@H](CN1CCCC1)c1cccc(NC(=O)CCC(=O)O)c1 | 54 | 0.87 mg/kg | 9.5 nM
CN(C(=O)Cc1ccc(C(F)(F)F)cc1)[C@H](CN1CCCC1)c1cccc(N(CC(=O)O)CC(=O)O)c1 |  |  | 2300 nM
CN(C(=O)Cc1ccc(C(F)(F)F)cc1)[C@H](CN1CCCC1)c1cccc([N+](=O)[O-])c1 |  |  | 0.63 nM
CN(C(=O)Cc1ccc(C(F)(F)F)cc1)[C@H](CN1CCCC1)c1cccc(N)c1 |  |  | 0.31 nM
